Measured values published in patent US20200360381A1, “COMPOUNDS FOR TREATING DENGUE VIRUS INFECTION AND OTHER VIRAL INFECTIONS” (priority 2017, published 2020).

System: VSV-eGFP
Test: microbe, parasite or virus in culture
Format: cell-based
Details: Vesicular stomatitis virus, 6 h

CN(CC(=O)N(Cc1ccc(C2CCCCC2)cc1)c1ccc(C(=O)O)cc1)S(=O)(=O)c1c(F)c(F)c(F)c(F)c1F [Compound S7337]
inhibition at 5 µM (read-out: VSV 5 μM): 17%
inhibition at 10 µM (read-out: VSV 10 μM): 66%
